Molecular target: T1, prolyl endopeptidase (Rattus norvegicus, UniProt O70196)
T1 construct: prolyl endopeptidase extracted from rat brain; from tissue; host or cells: rat brain
T1 sequence (O70196 1-710): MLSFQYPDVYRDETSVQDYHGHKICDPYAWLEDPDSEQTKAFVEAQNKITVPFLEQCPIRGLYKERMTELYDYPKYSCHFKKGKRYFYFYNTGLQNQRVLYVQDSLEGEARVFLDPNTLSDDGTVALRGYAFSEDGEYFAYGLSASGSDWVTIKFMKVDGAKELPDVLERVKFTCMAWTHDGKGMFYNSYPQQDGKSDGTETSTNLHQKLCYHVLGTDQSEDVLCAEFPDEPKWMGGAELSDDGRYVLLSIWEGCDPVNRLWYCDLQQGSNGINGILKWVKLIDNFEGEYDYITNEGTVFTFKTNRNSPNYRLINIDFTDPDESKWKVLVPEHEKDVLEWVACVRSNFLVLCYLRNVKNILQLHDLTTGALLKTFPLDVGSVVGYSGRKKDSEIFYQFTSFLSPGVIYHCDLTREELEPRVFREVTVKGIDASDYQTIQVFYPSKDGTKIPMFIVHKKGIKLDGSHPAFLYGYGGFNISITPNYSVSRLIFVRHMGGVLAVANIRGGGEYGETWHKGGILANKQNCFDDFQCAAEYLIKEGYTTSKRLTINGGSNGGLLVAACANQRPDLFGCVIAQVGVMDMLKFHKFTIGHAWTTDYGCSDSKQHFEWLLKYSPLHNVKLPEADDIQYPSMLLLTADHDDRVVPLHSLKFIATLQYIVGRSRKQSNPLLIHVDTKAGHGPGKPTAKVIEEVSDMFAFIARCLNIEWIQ
Experiment: Prolyl endopeptidase-inhibitory activity
Assay type: biochemical
Settings: rat brain enzyme, pH 7.0, 30° C., 1 hour; read-out: IC50 (prolyl endopeptidase inhibition)
Description: Prolyl endopeptidase-inhibitory activity
A mixture of a 0.1M potassium-sodium phosphate buffer (pH 7.0, 2675 μl ), a solution of the compound of the present invention in a 0.1M potassium-sodium phosphate buffer (pH 7.0, 100 μl ) and a solution of prolyl endopeptidase extracted from rat brain in a 25 mM sodium phosphate buffer (100 μl ) [123 unit/1, pH 6.8, containing 1 mM dithiothreitol and 0.5 mM EDTA, prepared by the method described in J. Neurochem., 35, 527 (1980)] was preincubated at 30° C. for 30 minutes. Thereto was added a 0.2 mM solution of 7-(N-succinyl-glycyl-prolyl)-4methylcoumarinamide (Peptide Institute, INC.) in a 0.1M potassium-sodium phosphate buffer (pH 7.0, 125 μl), and the mixture was incubated at 30° C. for 1 hour. The reaction mixture was immersed in ice (0° C.) to terminate the reaction, and the fluorescence (a1) was determined ten minutes later (excitation at 370 nm and emission at 440 nm). Concurrently, an experiment wherein, in the above system, the prolyl endopeptidase solution was substituted for a 25 mM sodium phosphate buffer (pH 6.8, containing 1 mM dithiothreitol and 0.5 mM EDTA) and an experiment wherein the solution of the compound of the present invention was substituted for a 0.1M potassium-sodium phosphate buffer (pH 7.0) were conducted. Each fluorescence (a2 and a3) was determined [See Tanpakushitsu Kakusan Koso, 29, 127 (1984)]. […]

IC50: 0.1 nM
Compound: O=C(CO)[C@@H]1CCCN1C(=O)[C@@H]1CCCN1C(=O)NCc1ccccc1 [Compound 2, (S)-2-[[(S)-2-(Hydroxyacetyl)-1-pyrrolidinyl]carbonyl]-N-(phenylmethyl)-1-pyrrolidinecarboxamide]

Reference: patent US5536737A, “Compound having prolyl endopeptidase inhibitory activity and pharmaceutical use thereof” (Japan Tobacco Inc., priority 1992, dated 1996)
